## scFv variants of Ab-14 (heavy chain) against a SARS-CoV-2 spike peptide

Source: Li et al. 2023 (doi:10.1038/s41467-023-39022-2), MIT Lincoln Laboratory and A-Alpha Bio; data file from the FLAb repository.

The target is the same throughout: PDVDLGDISGINAS, from the HR2 region of SARS-CoV-2 spike.

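The starting antibody came from a phage panning campaign against this peptide. These sequences belong to a second round, designed from the earlier measurements on random variants of the parent. Group labels follow the data file (Ctrl: baseline library sampled from a position-specific scoring matrix, with some repeated check sequences; Rand: our label for a block that the file lists under HC and that is probably the random mutants of the ten best first-round binders; En: ensemble of fine-tuned language models; GP: Gaussian process model; GPLM: also part of the Gaussian process libraries; HC: hill climbing; Gen: genetic algorithm; Gibbs: Gibbs sampling; a sequence that several methods proposed may carry one label only). Affinity was read by AlphaSeq, a pooled yeast mating assay with surface-displayed partners. The frequency of each diploid, read from paired DNA barcodes, reflects how well the two displayed proteins bind. Scores were corrected for input abundance and mapped to Kd with protein pairs of known affinity run in the same pool. Each pool was mated in six replicate cultures.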

Ab-14 is the parent antibody, in scFv form: VH, then a 15-residue (Gly4Ser)3 linker, then VL. The light chain is unchanged in all variants.
VH: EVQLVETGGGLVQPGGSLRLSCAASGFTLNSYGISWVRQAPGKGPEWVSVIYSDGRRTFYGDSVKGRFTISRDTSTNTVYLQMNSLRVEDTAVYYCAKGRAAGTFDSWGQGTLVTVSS
VL: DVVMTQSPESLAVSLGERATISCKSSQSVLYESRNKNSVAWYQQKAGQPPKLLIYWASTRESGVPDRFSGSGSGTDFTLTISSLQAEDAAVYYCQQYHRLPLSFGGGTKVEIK

Variants are written as CDR1, CDR2 and CDR3 of the heavy chain (limits as in the source). Parent: GFTLNSYGIS, VIYSDGRRTFYGDSVK, GRAAGTFDS. Kd is apparent (estimated from mating counts) and averaged on the log scale over replicates with a signal. Smaller is tighter. "nd" means that the variant was in the library but no mating with the target was seen in any replicate; the authors take this as a sign of poor binding, and no number exists. A sequence measured in both rounds can read differently, since the two assays cover different ranges.

{"CDR-H1": "GFSLNSYGIS", "CDR-H2": "VIYSDGRRTFYSDDVK", "CDR-H3": "GNAAGTFDS", "group": "GPLM_Gibbs", "Kd (apparent)": "800 pM", "replicates with signal": "6 of 6", "empty controls": "0 of 18"}
{"CDR-H1": "GFTLNDYGIS", "CDR-H2": "VIYSDGKRTFYSDSVK", "CDR-H3": "GRAAGTFDS", "group": "GPLM_HC", "Kd (apparent)": "1.7 nM", "replicates with signal": "6 of 6", "empty controls": "0 of 18"}
{"CDR-H1": "GFALNSYGIS", "CDR-H2": "VIYSDGRRTFYGDSVK", "CDR-H3": "TRAAGTFDS", "group": "Ctrl", "Kd (apparent)": "nd", "replicates with signal": "0 of 6", "empty controls": "1 of 18"}
{"CDR-H1": "GFDLNSYGIS", "CDR-H2": "VIYSDGRRTFYTDSVK", "CDR-H3": "GRWAGTFDS", "group": "GP_Gibbs", "Kd (apparent)": "1.1 nM", "replicates with signal": "6 of 6", "empty controls": "0 of 18"}
{"CDR-H1": "GFDLNEYGIS", "CDR-H2": "VIYADGRRTFYSDSVK", "CDR-H3": "GTVAGTFDA", "group": "En_HC", "Kd (apparent)": "150 pM", "replicates with signal": "6 of 6", "empty controls": "0 of 18"}
{"CDR-H1": "GFTLNEYGIS", "CDR-H2": "VIYSDGRRTFYSDSVK", "CDR-H3": "GQSAGTFDS", "group": "GP_HC", "Kd (apparent)": "850 nM", "replicates with signal": "1 of 6", "empty controls": "0 of 18"}
{"CDR-H1": "TITLNSYGIS", "CDR-H2": "VIYSDGRRTFYGDSVK", "CDR-H3": "GRAAGTFDS", "group": "Ctrl", "Kd (apparent)": "nd", "replicates with signal": "0 of 6", "empty controls": "0 of 18"}
{"CDR-H1": "GFTLNQYGIS", "CDR-H2": "VIYSDGRRTFYLDSVK", "CDR-H3": "GRAAGTFDS", "group": "Ctrl", "Kd (apparent)": "18 nM", "replicates with signal": "6 of 6", "empty controls": "1 of 18"}
{"CDR-H1": "GFDLNEYGIS", "CDR-H2": "VIYADGKRTFYADSVK", "CDR-H3": "GNVAGTFDM", "group": "En_Gen", "Kd (apparent)": "1.2 nM", "replicates with signal": "5 of 6", "empty controls": "0 of 18"}
{"CDR-H1": "GFDLNSYGIW", "CDR-H2": "VIVSDGRRTFYGDSVK", "CDR-H3": "GRAAGWFNS", "group": "Rand", "Kd (apparent)": "21 nM", "replicates with signal": "1 of 6", "empty controls": "0 of 18"}
{"CDR-H1": "GFDLNEYGIS", "CDR-H2": "VIYADGRRTFYSDSVK", "CDR-H3": "GANAGTFDV", "group": "En_HC", "Kd (apparent)": "270 pM", "replicates with signal": "6 of 6", "empty controls": "2 of 18"}
{"CDR-H1": "GFDLLEYGIS", "CDR-H2": "VIYADGQRVAYKNNVK", "CDR-H3": "GKNGATGSN", "group": "En_Gibbs", "Kd (apparent)": "nd", "replicates with signal": "0 of 6", "empty controls": "1 of 18"}
{"CDR-H1": "GFTLNSYGIS", "CDR-H2": "VIYSDGRRVSYGDSAK", "CDR-H3": "GRAAGTFEH", "group": "Ctrl", "Kd (apparent)": "nd", "replicates with signal": "0 of 6", "empty controls": "0 of 18"}
{"CDR-H1": "GFDLNSYGIS", "CDR-H2": "VIYSDGRRTFYSDSVK", "CDR-H3": "GKAAGTFDD", "group": "GP_Gen", "Kd (apparent)": "2.2 nM", "replicates with signal": "6 of 6", "empty controls": "0 of 18"}
{"CDR-H1": "GFDLNEYGIS", "CDR-H2": "VIYADGRRTSYADSVK", "CDR-H3": "GTAAGTFDQ", "group": "En_HC", "Kd (apparent)": "550 pM", "replicates with signal": "6 of 6", "empty controls": "1 of 18"}
{"CDR-H1": "GFDLDEYGIS", "CDR-H2": "VIYADGMRTAYVDSVK", "CDR-H3": "GNVAGTFDI", "group": "En_Gen", "Kd (apparent)": "450 pM", "replicates with signal": "6 of 6", "empty controls": "0 of 18"}
{"CDR-H1": "GFDLNEYGIS", "CDR-H2": "VIYADGMRTAYADQVK", "CDR-H3": "GNVAGTFDV", "group": "En_Gen", "Kd (apparent)": "230 pM", "replicates with signal": "6 of 6", "empty controls": "1 of 18"}
{"CDR-H1": "GFTLNSYGIS", "CDR-H2": "VIYSDGYRTFYSDSVK", "CDR-H3": "GRAAGTKDT", "group": "Ctrl", "Kd (apparent)": "nd", "replicates with signal": "0 of 6", "empty controls": "0 of 18"}
{"CDR-H1": "GFNIDEYGIS", "CDR-H2": "VIYADGKRSMYADKVK", "CDR-H3": "GVDGDFMMD", "group": "En_Gibbs", "Kd (apparent)": "nd", "replicates with signal": "0 of 6", "empty controls": "0 of 18"}
{"CDR-H1": "GFDLNEYGIS", "CDR-H2": "VIYADGKRTAYTDSVK", "CDR-H3": "GENAGTFDL", "group": "En_Gen", "Kd (apparent)": "420 pM", "replicates with signal": "6 of 6", "empty controls": "0 of 18"}
{"CDR-H1": "GFDLNEYGIS", "CDR-H2": "VIYADGKRTAYADSVK", "CDR-H3": "GSNAGTFDV", "group": "En_Gen", "Kd (apparent)": "170 pM", "replicates with signal": "6 of 6", "empty controls": "0 of 18"}
{"CDR-H1": "GFELSEYGIS", "CDR-H2": "VIYADGHRSFVTQDVK", "CDR-H3": "GQNGGAFNV", "group": "En_Gibbs", "Kd (apparent)": "nd", "replicates with signal": "0 of 6", "empty controls": "0 of 18"}
{"CDR-H1": "GFDLNEYGIS", "CDR-H2": "VIYADGMRTFYADDVK", "CDR-H3": "GNNAGTFDQ", "group": "En_Gen", "Kd (apparent)": "3.8 nM", "replicates with signal": "6 of 6", "empty controls": "0 of 18"}
{"CDR-H1": "GFDLNEYGIS", "CDR-H2": "VIYADGMRTAYADKVK", "CDR-H3": "GEVAGTFDQ", "group": "En_Gen", "Kd (apparent)": "380 pM", "replicates with signal": "6 of 6", "empty controls": "0 of 18"}
{"CDR-H1": "GFDLEEYGIS", "CDR-H2": "VIYADGKRTFYSDSVK", "CDR-H3": "GENAGTFDI", "group": "En_HC", "Kd (apparent)": "520 pM", "replicates with signal": "6 of 6", "empty controls": "0 of 18"}
{"CDR-H1": "GFSLEEQGIS", "CDR-H2": "VIYADGSRRAYAQDVK", "CDR-H3": "GGHAVGFVV", "group": "En_Gibbs", "Kd (apparent)": "3.4 nM", "replicates with signal": "5 of 6", "empty controls": "0 of 18"}
{"CDR-H1": "DFTLNSYSIS", "CDR-H2": "VIYSDGRRTFYGDSVK", "CDR-H3": "GRAAGTFDS", "group": "Ctrl", "Kd (apparent)": "nd", "replicates with signal": "0 of 6", "empty controls": "0 of 18"}
{"CDR-H1": "GFDLNSYGIS", "CDR-H2": "VIYSDGRRTFYGDSVK", "CDR-H3": "GKTAGTFDK", "group": "GP_Gen", "Kd (apparent)": "1.3 nM", "replicates with signal": "6 of 6", "empty controls": "0 of 18"}
{"CDR-H1": "GFDLNEYGIS", "CDR-H2": "VIYADGMRTAYSDSVK", "CDR-H3": "GNEAGTFDI", "group": "En_Gen", "Kd (apparent)": "2.0 nM", "replicates with signal": "6 of 6", "empty controls": "1 of 18"}
{"CDR-H1": "GFDLNEYGIS", "CDR-H2": "VIYADGVRTAYADSVK", "CDR-H3": "GQLAGTFDT", "group": "En_HC", "Kd (apparent)": "200 pM", "replicates with signal": "6 of 6", "empty controls": "2 of 18"}

In the paper, a design with two or fewer of six values counts as a poor binder. Of ten entries with the parent sequence, four were seen in most replicates (averages 2.2 nM to 240 nM), three in one and three in none, so single entries are noisy. As a blank, each scFv also met three strains without target: over all heavy chain designs, 1% of these pairings were detected, typically at 120 nM and seldom below 7.0 nM. The control count says in how many pairings with the empty strains this scFv gave a signal.